Target: TTR variant Y78F (Homo sapiens, UniProt P02766, Y98F)
Experiment: Kinetic turbidity assay of acid induced fibril formation

`Oc1cc(Cl)ccc1Oc1ccc(Cl)cc1Cl` [Triclosan, reference compound] showed an IC50 of 48 µM.
